From PubChem BioAssay AID1216 (Sanford-Burnham Center for Chemical Genomics, 2008)
The entries are a selection whose mix differs from that of the whole data set. Calls of active or inactive are those of the source.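 The calls were made as follows: active = activation factor of 2 or more at 20 µM; inactive = the rest.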

Protein sequences, listed by entry. Tags and fused reporters are not part of them. Lines headed by an entry give the natural chain unless they say otherwise; changes in a name come on top.
UniProt P34949: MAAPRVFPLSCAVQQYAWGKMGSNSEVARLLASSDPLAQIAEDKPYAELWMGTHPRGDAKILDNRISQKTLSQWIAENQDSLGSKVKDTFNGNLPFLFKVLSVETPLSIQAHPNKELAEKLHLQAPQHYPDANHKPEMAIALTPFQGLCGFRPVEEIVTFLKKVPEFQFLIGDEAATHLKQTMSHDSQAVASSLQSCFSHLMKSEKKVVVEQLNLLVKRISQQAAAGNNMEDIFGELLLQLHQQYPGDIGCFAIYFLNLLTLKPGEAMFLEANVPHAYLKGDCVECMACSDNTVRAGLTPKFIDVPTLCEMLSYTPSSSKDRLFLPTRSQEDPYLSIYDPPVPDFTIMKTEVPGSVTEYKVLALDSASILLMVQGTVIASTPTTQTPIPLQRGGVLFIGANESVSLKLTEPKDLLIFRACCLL

These compounds were tested against Mannose-6-phosphate isomerase (Homo sapiens) (UniProt P34949) (assay: MPI activation at elevated mannose 6-phosphate – biochemical, fluorescence intensity, near-saturating mannose 6-phosphate, primary screen (AID 1216)). Details: coupled PMI enzyme assay, resazurin fluorescence, 20 min; at 20 µM; stronger effect = higher value; 1 = untreated enzyme, 0 = substrate-free blank.
Procedure, shortened: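 Material: human phosphomannose isomerase with PGI, G6PDH, diaphorase coupling enzymes. Quantity: 15 ng/mL PMI. Medium: HEPES pH 7.4 buffer with MgCl2 and Tween-20. Reagent: Near-saturating mannose-6-phosphate, 1.0 mM. Compound: 20 µM single dose. Times: enzyme reaction with compound 20 min at room temperature. Detection: resorufin fluorescence at Ex 544/Em 590 nm.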

SMILES | activation factor
COc1ccc(C2=NCC(CBr)S2)cc1 (stereo not drawn) | inactive: 1.1
O=[N+]([O-])c1cccc2n[nH]nc12 | inactive: 1.1
Cc1ccc(NP(=O)(Oc2ccccc2)Oc2ccccc2)nc1 | inactive: 0.9
O=[N+]([O-])c1cc([N+](=O)[O-])c(CCNc2ccccc2)c([N+](=O)[O-])c1 | inactive: 0.9
CCc1nc2c(n1)c1c(non1O)c1c2no[n+]1[O-] | inactive: 0.4
CC(C)=N/N=C(\N)N[N+](=O)[O-] | inactive: 1.1
CN(C)C(=O)OCCc1n(C)cc[n+]1C | inactive: 1.1
O=[N+]([O-])c1ncn(CCn2ncnc2[N+](=O)[O-])n1 | inactive: 0.8
Cc1cc(SC(NC(=O)c2ccc(F)cc2)C(Cl)(Cl)Cl)ncn1 (stereo not drawn) | inactive: 1.4
CCN(N=Nc1nonc1N)c1nonc1N | inactive: 0.9
Clc1ccc(Cl)c(NC2=NCC(CBr)S2)c1 (stereo not drawn) | inactive: 1.1
CN1CCCC(OC(=O)C(c2ccccc2)c2ccccc2)C1 (stereo not drawn) | inactive: 1.1
Cc1c2non([O-])c-2c(C)[n+](=O)[n+]1[O-] | inactive: 0.6
O=C(NC(Sc1ccncn1)C(Cl)(Cl)Cl)c1ccccc1 (stereo not drawn) | inactive: 1.7
O=P1(Nc2nc3ccc(Cl)cc3s2)COc2ccccc2O1 (stereo not drawn) | inactive: 0.9
O=C(NC1CCS(=O)(=O)C1)NP(=S)(Oc1ccccc1)Oc1ccccc1 (stereo not drawn) | inactive: 0.8
CCNC(=S)/N=C(\N)N[N+](=O)[O-] | inactive: 1.1
c1ccc(-c2nn[nH]n2)c(-c2nn[nH]n2)c1 | inactive: 1.2
CC(=O)NC(SC(=S)N(CC(C)C)CC(C)C)C(Cl)(Cl)Cl (stereo not drawn) | inactive: 1.1
Cc1ccc(OP(=O)(Nc2ccccn2)Oc2ccc(C)cc2)cc1 | inactive: 0.9
O=c1c2cc([N+](=O)[O-])ccc2[nH]c2c([N+](=O)[O-])cc([N+](=O)[O-])cc12 | inactive: 0.7
C(Cc1nn[nH]n1)Cc1nn[nH]n1 | inactive: 1.2

SMILES | activation factor
O=C(OC1CN2CCC1CC2)c1cccc(Cl)c1 (stereo not drawn) | inactive: 0.9
O=P(Nc1nccs1)(c1ccccc1)c1ccccc1 | inactive: 1.1
CC(C)/C=N\N=C(\N)N[N+](=O)[O-] | inactive: 1.1
Cc1nn(-c2ccccc2)c2c1P(=O)(N1CCOCC1)N(C)C(c1ccccc1)=N2 (stereo not drawn) | inactive: 0.9
CN(C)C1(CNC(=O)c2ccc(S(C)(=O)=O)cc2)CCCCC1 | inactive: 0.9
O=P1(Nc2ncccn2)COc2ccccc2OC1 | inactive: 1.2
O=P1(Nc2ccc(Br)cn2)COc2ccccc2OC1 | inactive: 1.1
Cc1ccc(OCC(=O)OC2CN3CCC2CC3)cc1 (stereo not drawn) | inactive: 0.9
O=P(Nc1nccs1)(c1ccccc1)c1nc2ccccc2s1 (stereo not drawn) | inactive: 0
O=[N+]([O-])c1ccc2c(c1)nnn2O | inactive: 1.1
COc1cc(C(=O)NCC2(N3CCOCC3)CCCCC2)cc(Cl)c1OC(C)C | inactive: 1.1
Cc1ccc(NCCc2c([N+](=O)[O-])cc([N+](=O)[O-])cc2[N+](=O)[O-])cc1 | inactive: 0.7
O=C(OC1CN2CCC1CC2)C12CC3CC(CC(C3)C1)C2 (stereo not drawn) | inactive: 1.1
ClCCSc1nnc(-c2cccnc2)o1 | inactive: 0.9
CC(C)NC(=O)NP(=O)(Oc1ccccc1)Oc1ccccc1 | inactive: 0.9
O=[N+]([O-])c1cc([N+](=O)[O-])c(-c2ccn[nH]2)s1 | inactive: 0.8
Cc1cc(SC(NC(=O)c2ccccc2)C(Cl)(Cl)Cl)nc(C(C)C)n1 (stereo not drawn) | inactive: 1.2
Cc1cc(SC(NC=O)C(Cl)(Cl)Cl)ncn1 (stereo not drawn) | inactive: 1.8
O=P(Nc1ccccn1)(c1cccc2ccccc12)c1cccc2ccccc12 | inactive: 0.9
COP1(=S)c2c(C)nn(CCC#N)c2N=C(c2ccc(F)cc2)N1C (stereo not drawn) | inactive: 1.1
CCC(C)N(CC(C)C)C(=S)SC(NC(C)=O)C(Cl)(Cl)Cl (stereo not drawn) | inactive: 1.1
